# JMJD2E inh = inhibitors of human JMJD2E histone demethylase; JMJD2E catalytic domain, FDH-coupled NADH fluorescence (FDH is formaldehyde dehydrogenase); Potency, µM (highest dose often 57.1 µM), hits mostly inhibitors; hit rate 1.6% among 230,000; AID 2147; active = well fitted inhibition curve with a large enough effect, not every such curve was filed as active; inconclusive = small, poorly fitted or top-dose-only effect, or another doubt; inactive = no such curve, though single readings can be large or run the other way; note: nearly all actives have a fitted effect of over 50% in size
# G9a block = G9a (human) methyltransferase inhibition. Q96KQ7. G9a H3K9 monomethylation, AlphaScreen, 2 h. Potency, µM (top dose mostly 102 µM), most hits filed as inhibitors. hit rate 8.8% among 350,000. AID 504332; note: nearly all actives have a fitted effect of over 75% in size
#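 Chemiluminescent proximity detection of H3K9 monomethylation, read after 10 min bead incubation in the dark. Reaction: 20 nM G9a, 500 nM biotin-H3K9 peptide, 20 uM SAM cofactor, 2 h, room temperature, following 15 min enzyme-compound preincubation.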
# miR-21 FLuc = raises the signal of a miR-21 reporter; 340,000 tested, under 10 active; HeLa miR-21 FLuc reporter, luciferase, 48 h; Potency, µM (series often up to 38.3 µM); active = well fitted rising curve with a large enough effect; inconclusive = small, poorly fitted or top-dose-only effect; inactive = no such curve, though single readings can be large or run the other way;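 further: miR-21 action dims this reporter so a rising signal means less miR-21 action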
#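 Using DMEM plus 10% FBS, HeLa miR-21-FLuc cells are incubated with test compounds (final up to about 40uM) for 48 hours; firefly luciferase signal is then imaged following reagent-mediated lysis.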
# Lamin A splicing = changes lamin A minigene splicing in HeLa cells | HeLa LMNA splicing GFP/RFP minigene ratio, 48 h | Potency, µM (highest dose often 46.1 µM), most hits filed as inhibitors | hit rate 0.01% among 200,000 | AID 1487; active = well fitted inhibition curve with a large enough effect in the signal ratio, with a control signal flat, not every such curve was filed as active; inconclusive = small, poorly fitted or top-dose-only effect, or effect the other way, or a change in a side signal; the % refers to the signal ratio
#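 Read-out is the ratio of GFP to DsRed2 object intensity, acquired by 488 nm laser-scanning cytometry on HeLa lamin A-EGFP minigene reporter cells. Compound incubation 48 hrs at 37 °C in Opti-MEM with 2% FBS; DMSO 0.5% final.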
# ALDH1A1 block = ALDH1A1 (human) enzyme inhibition; Purified ALDH1A1, NADH fluorescence, propionaldehyde substrate; hit rate 7.3% among 220,000; Potency, µM (highest dose often 75.3 µM), most hits filed as inhibitors; P00352; active = well fitted inhibition curve with a large enough effect, not every such curve was filed as active; inconclusive = small, poorly fitted or top-dose-only effect, or another doubt; inactive = no such curve, though single readings can be large or run the other way
# Sfp inh = blocks B. subtilis Sfp PPTase activity; Biochemical Sfp PPTase activity, qHTS; hit rate 3.5% among 310,000; Potency, µM, actives largely listed as inhibitors; Q9F4F7;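 note: the enzyme is Sfp with the accession as filed and its product quenches rhodamine fluorescence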
#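 After 15 min at room temperature with compound, 15 nM Sfp received 5 uM rhodamine-CoA plus 12.5 uM BHQ-2-ybbR (50 mM Hepes pH 7.6, 10 mM MgCl2). Rate came from the fluorescence difference over 30 min, ex 525/em 598 nm.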
# A number is an active result; – = inactive; ? = inconclusive; · = not tested or not shown; [ ] = another dose, or the depositor's remark. Rows were chosen to be rich in hits. Some 13% of all compounds tested hit in one or more screens of this group. Unless noted, calls come from the whole dose curve; as a rule, active = well fitted curve in the direction sought with a large enough effect; inconclusive = small, poorly fitted or top-dose-only effect, or another doubt; inactive = no such curve, though single readings can be large; an effect the other way counts as inactive or inconclusive.
SMILES,JMJD2E inh,G9a block,miR-21 FLuc,Lamin A splicing,ALDH1A1 block,Sfp inh
O=C(NC(=S)Nc1ccc(N2CCOCC2)cc1)c1ccccc1,–,4.5µM,–,–,?,–
O=C(NC(=S)Nc1ccc(N2CCOCC2)cc1)c1ccco1,–,?,–,–,?,?
Cc1ccccc1C(=O)NC(=S)Nc1ccc(N2CCOCC2)cc1,–,45µM,–,–[9.22 µM],?,–
CC(=O)c1cccc(NC(=S)NC(=O)c2cccc(Cl)c2)c1,–,–,–,–,20µM,–
CN(C)C(=S)Nc1ccc(N2CCOCC2)cc1,–,·,–,·,–,–
O=C(CN1C(=O)CCc2cc(S(=O)(=O)N3CCOCC3)ccc21)Nc1cccc(Cl)c1,·,–,–,–,·,·
COc1ccc(C(O)P(=O)(OCCC(C)C)c2ccc(N(C)C)cc2)cc1 (stereo not drawn),·,–,–,·,·,–
C/C(=C\C(=O)c1ccc(Cl)cc1)Nc1ccc(N2CCOCC2)cc1,–,–,–,–,–,–
C/C(=C\C(=O)c1ccccc1)Nc1ccc(N2CCOCC2)cc1,–,79µM,–,–,–,–
CC(=O)c1cccc(NC(=S)NC(=O)c2cncc(Br)c2)c1,·,–,–,·,·,?
O=C(NC(=S)Nc1ccc(N2CCOCC2)cc1)c1cncc(Br)c1,–,?,–,–,?,56µM
Cc1ccc(C)c(-c2ccc(=O)n(C(C)C(=O)Nc3ccccc3C(F)(F)F)n2)c1 (stereo not drawn),·,–,–,·,·,·
CCOC(=O)c1nc(N2CCN(c3ccc(F)cc3)CC2)c2c(C)noc2n1,·,–,–,–,·,·
Nc1nc(=S)c2ncn(C3CCCC3)c2[nH]1,–,–[0.501 µM],–,–,?,13µM
COc1ccc(N=Cc2[nH]c3ccccc3c2O)cc1,?,6.3µM,–,–,13µM,–
CC(C)CCOc1ccc(C(=O)CCNC(C)C(=O)O)cc1 (stereo not drawn),–,5.6µM,–,–,0.13µM,–
CN1CC=C2C(C#N)=C(N)C(C#N)(C#N)C(c3ccsc3)C2C1 (stereo not drawn),?,·,–,–,?,–
CCOC(=O)N1CC=C2C(C#N)=C(N)C(C#N)(C#N)[C@H](c3ccsc3)[C@H]2C1,–,45µM,–,–,?,–
N#CC1=C(N)C(C#N)(C#N)C(c2ccncc2)C2CN(C(=O)OCc3ccccc3)CC=C12 (stereo not drawn),?,16µM,–,–,?,–
N#CC1=C(N)C(C#N)(C#N)[C@H](c2cccnc2)[C@H]2CN(C(=O)OCc3ccccc3)CC=C12,?,50µM,–,?,?,–
CN(Cc1ccccc1)C(=O)C1CCN(S(=O)(=O)Cc2ccccc2)CC1,·,–,–,·,·,·
Cn1c(=O)c2sccc2n2c(CCC(=O)NCc3ccc(F)cc3)nnc12,·,–,–,·,·,·
Cc1cc(C)c(Cn2c(=O)n(CCCCCC(=O)NCc3ccc4c(c3)OCO4)c(=O)c3sccc32)c(C)c1,·,–,–,·,·,·
Cc1ccc(Cn2c(CNS(=O)(=O)c3ccc(Cl)s3)nc3cccnc32)cc1,·,–,–,–,·,·
CCn1c(O)c(/C=N/N=C/c2ccc(OC)cc2)c2cc(C3=NNC(=O)CC3)ccc21,?,·,–,·,·,–
SMILES,JMJD2E inh,G9a block,miR-21 FLuc,Lamin A splicing,ALDH1A1 block,Sfp inh
CC/C(C)=N\N=C\c1c(O)n(CC)c2cc(C3=NNC(=O)CC3)ccc12,?,8.9µM,–,–,?,–
CCOc1ccc(OCc2ccc(C(=O)NCC3CCCO3)o2)cc1 (stereo not drawn),–,–,–,–,–,–
O=C(NCC1CCCO1)c1ccc(COc2ccc(F)cc2)o1 (stereo not drawn),–,–[12.7 µM],–,–,10µM,–
CC(=O)N1CCCc2cc(S(=O)(=O)N3CCN(c4cccc(C(F)(F)F)c4)CC3)ccc21,·,–,?,?,·,·
Cc1ccc(CC(=O)NNC(=O)c2cccs2)cc1C,·,–,·,·,·,·
CC(C)Cn1c(=S)[nH]c2cc(C(=O)NCc3ccccc3F)ccc2c1=O,·,–[2.33 µM],·,·,·,·
O=C(NCCCN1CCCC1=O)c1ccc2c(=O)n(-c3ccc(F)cc3)c(=S)[nH]c2c1,?,32µM,–,?,14µM,–
COc1ccc(-n2c(=S)[nH]c3cc(C(=O)NCc4ccccc4)ccc3c2=O)c(OC)c1,·,22µM,–,·,·,–
O=C(NCCCN1CCCC1=O)c1ccc2c(=O)n(-c3ccccc3F)c(=S)[nH]c2c1,?,25µM,–,–[9.22 µM],?,?
COc1ccc(-n2c(=S)[nH]c3cc(C(=O)NCCCN4CCOCC4)ccc3c2=O)c(OC)c1,–,?,–,·,–,–
CN(C)C(CNC(=O)c1ccc2c(=O)n(-c3ccccc3F)c(=S)[nH]c2c1)Cc1ccccc1 (stereo not drawn),–,?,–,–,13µM,–
COc1ccc(-n2c(=S)[nH]c3cc(C(=O)NCc4cccnc4)ccc3c2=O)c(OC)c1,·,?,–,·,·,–
CN(C)c1nc(-c2cccc(NS(C)(=O)=O)c2)nc2ccccc12,·,–[0.501 µM],·,–,–,–
O=c1ccc2c([nH]1)CCCCCCCCCC2,·,–,–,·,·,–
CC(=O)c1ccc(N2CCN(c3ncnc4c3c(-c3ccccc3)cn4-c3cccc(C)c3)CC2)cc1,·,–,–,–,·,·
O=C(Nc1ccccc1C(=O)N1CCCC1)c1ncoc1-c1cccc(Cl)c1,·,–,–,·,·,–
Cc1ccc(N2NC(C)(c3cccs3)NC2=S)cc1 (stereo not drawn),?,8.9µM,–,–,18µM,71µM
Cc1ccc(N2CC(O)(c3cccs3)[N+]3=C2CCCC3)cc1 (stereo not drawn),–,–[12.7 µM],–,·,–,–
COc1ccc(N=Cc2nc(-c3ccco3)oc2O)cc1,–,?,–,–,?,–
CCC(=NCc1ccc(Cl)c(Cl)c1)c1nc(-c2ccco2)oc1O,–,45µM,–,?,–,–
COc1ccc(N2CCN(S(=O)(=O)c3cc(-c4cc(C)no4)ccc3C(C)C)CC2)cc1,·,22µM,–,·,·,–
COc1ccc(N2CCN(S(=O)(=O)c3ccc(OC)cc3)CC2)cc1,–,25µM,–,?,–,–
CCC(CC)N1CCN(S(=O)(=O)c2ccc(OC)cc2)CC1,·,3.5µM,–,·,·,–
COc1cc(OC)cc(C(=O)N[C@H](C(=O)NCc2ccc(F)cc2)C(C)C)c1,·,–,–,·,·,–
Fc1ccccc1/C=N/n1cc(-c2ccccc2)[nH]c1=S,?,?,–,·,·,89µM
S=c1[nH]c(-c2ccccc2)cn1/N=C/c1cccs1,?,·,–,?,?,?
Cc1ccc2[nH]c(-c3ccccc3)cc(=O)c2c1,?,–,–,?,–,–
Cc1ccc(C)c(/C=N/n2cc(-c3ccccc3)[nH]c2=S)c1,?,4µM,–,–,–,–
O=C(O)CCc1ccc(-c2ccc(F)cc2)n1CC(=O)O,?,45µM,–,–,?,?
COC(=O)c1ccccc1-n1c(CCC(=O)O)ccc1-c1ccc(F)cc1,·,?,–,·,·,–
